Measurements taken from patent US6610692B1, “Thrombin inhibitors” (Merck & Co., Inc., priority 1998, dated 2003).

Molecular target: human α-thrombin (Homo sapiens, UniProt P00734)
Assay: In vitro assay for determining proteinase inhibition: thrombin (sar-PR-pna or Z-GPR-afc substrate)
Format: biochemical
Conditions: Table 2; scaffold drawing 104 with R1, R2, R3

| Ki | Structure (SMILES) |
| --- | --- |
| < 20 nM | CC(=O)c1c(-c2ccccc2C(C)C)cc(C)n(CC(=O)NCc2cc3cc[nH]c3cn2)c1=O |
| < 20 nM | Cc1cc(-c2ccccc2C(C)C)c(O)c(=O)n1CC(=O)NCc1cc2cc[nH]c2cn1 |
| > 20 nM | Cc1cc(-c2ccccc2C(C)C)cc(=O)n1CC(=O)NCc1cnc2[nH]cc(F)c2c1 |
| < 20 nM | Cc1cc(-c2ccccc2C(C)C)c(O)c(=O)n1CC(=O)NCc1cc2c(Cl)c[nH]c2cn1 |
| > 20 nM | Cc1cc(-c2ccccc2C(F)(F)F)cc(=O)n1CC(=O)NCc1cc2cc[nH]c2cn1 |
| > 20 nM | Cc1cc(-c2ccccc2C(C)C)cc(=O)n1CC(=O)NCc1cnc2[nH]ccc2c1 |
| > 20 nM | Cc1cc(-c2ccccc2C(C)C)cc(=O)n1CC(=O)NCc1cc2cn[nH]c2cn1 |

Same assay, conditions: Table 3; scaffold drawing 108 with R1, R2, R3

| Ki | Structure (SMILES) |
| --- | --- |
| < 20 nM | Cc1cc(C(=O)N(CC(C)C)CC(C)C)c(O)c(=O)n1CC(=O)NCc1ccc2[nH]ccc2n1 |
| < 20 nM | Cc1cc(C(=O)N(CC(C)C)CC(C)C)cc(=O)n1CC(=O)NCc1cc2cc[nH]c2cn1 |
| < 20 nM | Cc1cc(C(=O)N(CC(C)C)CC(C)C)c(O)c(=O)n1CC(=O)NCc1cc2cc[nH]c2cn1 |
| < 20 nM | CCNc1c(C(=O)N(C(C)C)C(C)C)cc(C)n(CC(=O)NCc2ccc3[nH]ccc3c2)c1=O |

Continued, molecule first:

| Structure (SMILES) | Ki |
| --- | --- |
| Cc1cc(C(=O)N2CCCCC2)c(NCC2CC2)c(=O)n1CC(=O)NCc1ccc2[nH]cnc2c1 | > 20 nM |
| Cc1cc(C(=O)N2CCCCC2)c(NCCC2CC2)c(=O)n1CC(=O)NCc1ccc2[nH]cnc2c1 | < 20 nM |
| Cc1cc(C(=O)N2[C@H](C)CCC[C@@H]2C)c(O)c(=O)n1CC(=O)NCc1ccc2[nH]cnc2c1 (relative stereo) | < 20 nM |
| Cc1cc(C(=O)N2CCCCC2)c(NCCCC2CC2)c(=O)n1CC(=O)NCc1cc2cc[nH]c2cn1 | < 20 nM |
